{
  "source": "patent US20040121316A1",
  "about": "(priority 2002, published 2004)",
  "key": {"[1]": {"target": "T1, WT HIV protease (Human immunodeficiency virus type 1 group M subtype B, UniProt P04585)", "T1 construct": "synthetic hexapeptide substrate cleavage by HIV-1 protease", "assay": "biochemical", "type": "biochemical, HIV-1"}, "[2]": {"target": "T2, recombinant HIV-1 protease (Human immunodeficiency virus type 1 group M subtype B, UniProt P04585)", "T2 construct": "Enzyme: recombinant HIV-1 protease expressed in E.Coli; purchased Bachem California, Inc. H-9040; host or cells: E. coli", "assay": "biochemical"}, "[3]": {"test_system": "HIV-1 46I50V", "assay": "microbe, parasite or virus in culture", "details": "Human immunodeficiency virus 1, read-out: Cell-based assay (MT-4) EC50/nM 46I50V"}, "[4]": {"target": "T3, human leukocyte elastase (huLE) (Homo sapiens, UniProt P08246)", "T3 sequence (P08246 30-267)": "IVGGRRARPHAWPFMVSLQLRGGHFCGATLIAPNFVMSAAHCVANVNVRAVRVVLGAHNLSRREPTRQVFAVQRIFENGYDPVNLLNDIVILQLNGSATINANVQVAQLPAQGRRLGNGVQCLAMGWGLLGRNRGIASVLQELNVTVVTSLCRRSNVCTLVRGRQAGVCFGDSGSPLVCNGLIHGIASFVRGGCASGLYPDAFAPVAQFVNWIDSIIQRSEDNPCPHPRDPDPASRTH", "type": "biochemical"}, "[5]": {"test_system": "WT HIV-1", "details": "read-out: Cell-based assay (MT-4) EC50/nM WT"}},
  "note": "Where two headings read alike, the source gives them in different places.",
  "data": [
    {"smiles": "O=C(O)c1cccc(CN2C(=O)N(Cc3ccc(O)cc3)C(Cc3ccccc3)C(O)C(O)C2Cc2ccccc2)c1", "note": "(stereo not drawn)", "values": [
      {"measurement": "IC50", "setting": "[1]", "result": 15, "unit": "nM"}
    ]},
    {"smiles": "Nc1n[nH]c2ccc(CN3C(=O)N(Cc4cccc(C(=O)O)c4)C(Cc4ccccc4)C(O)C(O)C3Cc3ccccc3)cc12", "note": "(stereo not drawn)", "values": [
      {"measurement": "Ki", "setting": "[2]; Ki (nM)", "result": 0.091, "unit": "nM"},
      {"measurement": "IC50", "setting": "[1]", "result": 3.4, "unit": "nM"}
    ]},
    {"smiles": "CCOP(=O)(COc1ccc(CC2C(O)C(O)C(Cc3ccccc3)N(Cc3ccccc3)C(=O)N2Cc2ccccc2)cc1)OCC", "note": "(stereo not drawn)", "values": [
      {"measurement": "Ki", "setting": "[2]; Ki (nM)", "result": 0.656, "unit": "nM"},
      {"measurement": "IC50", "setting": "[1]", "result": 3.9, "unit": "nM"}
    ]},
    {"smiles": "Nc1n[nH]c2ccc(CN3C(=O)N(CCCCOCP(=O)(O)O)C(Cc4ccccc4)C(O)C(O)C3Cc3ccccc3)cc12", "note": "(stereo not drawn) [CH2 OCH2PO3H2]", "values": [
      {"measurement": "IC50", "setting": "[1]", "result": 42, "unit": "nM"}
    ]},
    {"smiles": "CCOP(=O)(COCCCCN1C(=O)N(Cc2ccc3[nH]nc(N)c3c2)C(Cc2ccccc2)C(O)C(O)C1Cc1ccccc1)OCC", "note": "(stereo not drawn) [CH2OCH2PO3Et2]", "values": [
      {"measurement": "Ki", "setting": "[2]; Ki (nM)", "result": 2.8, "unit": "nM"},
      {"measurement": "IC50", "setting": "[1]", "result": 13, "unit": "nM"},
      {"measurement": "EC50", "setting": "[3]", "result": 789, "unit": "nM"}
    ]},
    {"smiles": "CCCCN1C(=O)N(Cc2ccc3[nH]nc(N)c3c2)C(Cc2ccccc2)C(O)C(O)C1Cc1ccccc1", "note": "(stereo not drawn) [DMP-851]", "values": [
      {"measurement": "IC50", "setting": "[1]; read-out: WT IC50/nM", "result": 3.8, "unit": "nM"}
    ]},
    {"smiles": "COC(=O)CCC(=O)N[C@@H](C)C(=O)N[C@@H](C)C(=O)N1CCC[C@H]1C(=O)N[C@@H](C)C(=O)CCl", "note": "[MeOSuC-Ala-Ala-Pro-Ala-CMK]", "values": [
      {"measurement": "IC50", "setting": "[4]", "result": 60, "unit": "µM"}
    ]},
    {"smiles": "CCOP(=O)(COCCCN1C(=O)N(Cc2ccc3[nH]nc(N)c3c2)C(Cc2ccccc2)C(O)C(O)C1Cc1ccccc1)OCC", "note": "(stereo not drawn) [OCH2PO3Et2]", "values": [
      {"measurement": "Ki", "setting": "[2]; Ki (nM)", "result": 1.23, "unit": "nM"},
      {"measurement": "IC50", "setting": "[1]", "result": 23, "unit": "nM"}
    ]},
    {"smiles": "CCOP(=O)(COc1ccc(CC2C(O)C(O)C(Cc3ccc(OC)cc3)N(Cc3cccc(N)c3)C(=O)N2Cc2cccc(N)c2)cc1)OCC", "note": "(stereo not drawn) [OCH3, Ph-mNH2, OCH2PO3Et2]", "values": [
      {"measurement": "Ki", "setting": "[2]; Ki (nM)", "result": "< 0.01", "unit": "nM"},
      {"measurement": "IC50", "setting": "[1]", "result": 3.6, "unit": "nM"}
    ]},
    {"smiles": "CCOP(=O)(COc1ccc(CC2C(O)C(O)C(Cc3ccc(OC)cc3)N(Cc3cccnc3)C(=O)N2Cc2cccnc2)cc1)OCC", "note": "(stereo not drawn) [OCH3, m-pyridine, OCH2PO3Et2]", "values": [
      {"measurement": "EC50", "setting": "[5]", "result": 115, "unit": "nM"}
    ]},
    {"smiles": "CCOP(=O)(COc1ccc(CC2C(O)C(O)C(Cc3ccc(O)cc3)N(Cc3ccc(O)cc3)C(=O)N2Cc2ccc(O)cc2)cc1)OCC", "note": "(stereo not drawn) [OH, Ph-pOH, OCH2PO3Et2]", "values": [
      {"measurement": "Ki", "setting": "[2]; Ki (nM)", "result": "< 0.01", "unit": "nM"},
      {"measurement": "IC50", "setting": "[1]", "result": 2.6, "unit": "nM"}
    ]},
    {"smiles": "CCOP(=O)(CCNCc1ccc(CC(NC(=O)OC2COC3OCCC23)C(O)CN(CC(C)C)S(=O)(=O)c2ccc(OC)cc2)cc1)OCC", "note": "(stereo not drawn) [drawing 619 R1=Et R2=Et]", "values": [
      {"measurement": "Ki", "setting": "[2]", "result": "+ +"}
    ]},
    {"smiles": "COc1ccc(S(=O)(=O)N(CC(C)C)CC(O)C(Cc2ccc(CNCCP(=O)(O)O)cc2)NC(=O)OC2COC3OCCC23)cc1", "note": "(stereo not drawn) [drawing 619 R1=H R2=H]", "values": [
      {"measurement": "Ki", "setting": "[2]", "result": "+ +"}
    ]},
    {"smiles": "COc1ccc(S(=O)(=O)N(CC(C)C)CC(O)C(Cc2ccc(CNCCP(=O)(O)OC(C)C(=O)O)cc2)NC(=O)OC2COC3OCCC23)cc1", "note": "(stereo not drawn) [drawing 619 R1=H R2=Lac]", "values": [
      {"measurement": "Ki", "setting": "[2]", "result": "+ +"}
    ]},
    {"smiles": "COc1ccc(S(=O)(=O)N(CC(C)C)CC(O)C(Cc2ccc(CN(C)CCP(=O)(O)O)cc2)NC(=O)OC2COC3OCCC23)cc1", "note": "(stereo not drawn) [drawing 620 R1=H R2=H]", "values": [
      {"measurement": "Ki", "setting": "[2]", "result": "+ +"}
    ]},
    {"smiles": "CCOP(=O)(CON=Cc1ccc(CC(NC(=O)OC2COC3OCCC23)C(O)CN(CC(C)C)S(=O)(=O)c2ccc(OC)cc2)cc1)OCC", "note": "(stereo not drawn) [drawing 621 R1=Et R2=Et]", "values": [
      {"measurement": "Ki", "setting": "[2]", "result": "+ +"}
    ]},
    {"smiles": "CCOP(=O)(CCN1CCN(CC(NC(=O)OC2COC3OCCC23)C(O)CN(CC(C)C)S(=O)(=O)c2ccc(OC)cc2)CC1)OCC", "note": "(stereo not drawn) [drawing 623]", "values": [
      {"measurement": "Ki", "setting": "[2]; Ki", "result": "> 1", "unit": "nM"}
    ]},
    {"smiles": "COc1ccc(S(=O)(=O)N(CC(C)C)CC(O)C(CC2=CCN(CCP(=O)(OCc3ccccc3)OCc3ccccc3)CC2)NC(=O)OC2COC3OCCC23)cc1", "note": "(stereo not drawn) [drawing 630]", "values": [
      {"measurement": "Ki", "setting": "[2]", "result": "+ +"}
    ]},
    {"smiles": "COc1ccc(S(=O)(=O)N(CC(C)C)CC(O)C(Cc2ccc(NCP(=O)(O)O)cc2)NC(=O)OC2COC3OCCC23)cc1", "note": "(stereo not drawn) [drawing 657]", "values": [
      {"measurement": "Ki", "setting": "[2]", "result": "+ + +"}
    ]},
    {"smiles": "CC(C)CN(CC(O)C(Cc1ccc(OCP(=O)(O)O)cc1)NC(=O)OC1COC2OCCC12)S(=O)(=O)c1ccc(O)cc1", "note": "(stereo not drawn) [drawing 723]", "values": [
      {"measurement": "Ki (pM)", "setting": "[2]", "result": "+ + +"}
    ]},
    {"smiles": "CCOP(=O)(COc1ccc(CC(NC(=O)OC2COC3OCCC23)C(O)CN(CC(C)C)S(=O)(=O)c2ccc(O)cc2)cc1)OCC", "note": "(stereo not drawn) [drawing 724]", "values": [
      {"measurement": "Ki (pM)", "setting": "[2]", "result": "+ + +"}
    ]},
    {"smiles": "CCOP(=O)(CCCNC(=O)c1cccc(CN2C(=O)N(Cc3ccc4[nH]nc(N)c4c3)C(Cc3ccccc3)C(O)C(O)C2Cc2ccccc2)c1)OCC", "note": "(stereo not drawn) [drawing 809]", "values": [
      {"measurement": "Ki", "setting": "[2]; Ki (nM)", "result": 0.157, "unit": "nM"},
      {"measurement": "IC50", "setting": "[1]", "result": 1.6, "unit": "nM"}
    ]},
    {"smiles": "CCOP(=O)(CCCNC(=O)c1cccc(CN2C(=O)N(Cc3ccc4[nH]nc(N)c4c3)C(Cc3ccccc3)C(O)C(O)C2Cc2ccccc2)c1)OCC", "note": "(stereo not drawn) [drawing 820]", "values": [
      {"measurement": "Ki", "setting": "[2]", "result": 0.157, "unit": "nM"},
      {"measurement": "IC50", "setting": "[1]; read-out: WT IC50/nM", "result": 1.6, "unit": "nM"}
    ]},
    {"smiles": "Nc1n[nH]c2ccc(CN3C(=O)N(Cc4cccc(OCc5ccccc5)c4)C(Cc4ccccc4)C(O)C(O)C3Cc3ccccc3)cc12", "note": "(stereo not drawn) [m-OBn]", "values": [
      {"measurement": "Ki", "setting": "[2]; read-out: Ki", "result": 0.253, "unit": "nM"},
      {"measurement": "IC50", "setting": "[1]; read-out: WT IC50/nM", "result": 6.9, "unit": "nM"}
    ]},
    {"smiles": "O=C1N(Cc2ccccc2)[C@H](Cc2ccccc2)[C@H](O)[C@@H](O)[C@@H](Cc2ccccc2)N1Cc1ccc2[nH]ncc2c1", "note": "[reference compound]", "values": [
      {"measurement": "Ki", "setting": "[2]; Ki (nM)", "result": 0.37, "unit": "nM"},
      {"measurement": "IC50", "setting": "[1]", "result": 5.8, "unit": "nM"}
    ]}
  ]
}
